## Ab-14 light chain CDR variants: yeast mating affinities

Target peptide (SARS-CoV-2 spike, HR2 region): PDVDLGDISGINAS

Parent: Ab-14, a human scFv built as VH, a (GGGGS)3 linker, VL. Only the CDRs of the light chain vary.
VH: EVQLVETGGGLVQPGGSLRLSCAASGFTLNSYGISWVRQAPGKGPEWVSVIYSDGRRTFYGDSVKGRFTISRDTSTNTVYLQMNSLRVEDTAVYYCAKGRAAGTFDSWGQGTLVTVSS
VL: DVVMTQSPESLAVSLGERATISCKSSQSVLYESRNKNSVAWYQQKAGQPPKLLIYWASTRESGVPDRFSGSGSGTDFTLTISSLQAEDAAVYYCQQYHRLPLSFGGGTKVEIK

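The starting antibody came from a phage panning campaign against this peptide. These sequences belong to a second round, designed from the earlier measurements on random variants of the parent. Group labels follow the data file (Ctrl: baseline library sampled from a position-specific scoring matrix, with some repeated check sequences; En: ensemble of fine-tuned language models; GP: Gaussian process model; HC: hill climbing; Gen: genetic algorithm; Gibbs: Gibbs sampling; a sequence that several methods proposed may carry one label only). The scFvs were displayed on barcoded MATa yeast, the peptide on MATalpha yeast. Binding brings cells together so that they mate, and sequencing counts the barcode pairs among the diploids. Scores were corrected for input abundance and mapped to Kd with protein pairs of known affinity run in the same pool. The assay was run in six technical replicates.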

The parent's light chain CDRs are KSSQSVLYESRNKNSVA, WASTRES, QQYHRLPLS; each variant's own CDRs replace them letter for letter.
Each Kd is an estimate from the mating assay, the geometric mean of the replicates in which the pair was seen; lower is stronger.
Where no diploid with the target was found in any replicate, the entry reads "nd": below detection, most likely a poor binder, though not proof of it.
Of ten entries with the parent sequence, four were seen in most replicates (averages 2.2 nM to 240 nM), three in one and three in none, so single entries are noisy.
Some sequences occur more than once in the pool; their replicates are pooled.
Three control strains display no target. For all light chain designs, 4% of the pairings with them gave a signal, with a median of 430 nM and one signal in twenty below 38 nM, so weak values seen in few replicates may be background.
The authors averaged sequences with at least three values out of six and counted those with two or fewer as poor binders.
Values of this round are not directly comparable with the first-round values of the same sequences.

apparent Kd | replicates with signal | CDR-L1 | CDR-L2 | CDR-L3 | group
42 nM | 6/6 | KVSSFMRGLMMRKDSIA | DNETRNH | QQYDRLPLS | En_Gen
790 pM | 6/6 | KVSWSVGYGSRNKNSVA | EASTRMS | QQYHRLPLY | GP_Gibbs
870 pM | 6/6 | KLHQSVGYESRNKNSVA | GGSQRES | QQYHRLPLS | GP_Gibbs
12 nM | 6/6 | NIYQSMNFLGRVMNSIA | DASTLPD | QQYHRLPLS | En_HC
3.3 nM | 6/6 | KSSQSVLTEGRNKNSVA | QASNRES | QQYHRLPLS | Ctrl
890 pM | 6/6 | KVSESNLYESRNKNSVA | EASTRES | QQYHRLPLS | GP_Gen
1.3 nM | 6/6 | KQQFSSGGGSRNKNSVA | EASTRES | QQYHRLPLS | GP_Gibbs
2.4 nM | 6/6 | QISTITGHMSTIKNNVA | EMVTRAN | QQYNRLPLS | En_Gen
620 pM | 12/12 | KSSQSGLYESRNKNSVA | EASTRES | QQYHRLPLS | Ctrl+GP_Gen
200 nM | 1/6 | FLTYAQDQTGLQYNAIA | QVNLKEN | QQYGRLPLA | En_Gibbs
49 nM | 4/6 | KSSHSVLYESRNKNSVA | WASTRES | QQYHRLPLS | Ctrl
2.2 nM | 6/6 | KSSQSVLYESENKNSVA | QASTRVS | QQYHRLPLS | Ctrl
750 pM | 6/6 | KCAQGWLYESRNKNSVA | NASQREH | QQYHRLPLS | GP_Gibbs
94 nM | 5/6 | KTSQSVLYESRNKNSVA | WASTRSS | QSYTRLPLS | Ctrl
510 pM | 6/6 | KLYMSTLYESRNKNSVA | NASTRES | QQYHRLPLS | GP_HC
3.6 nM | 6/6 | KLVQFMNRGTHHTSNIA | DAVNRID | QQYHRLPLA | En_Gen
1.2 nM | 6/6 | HSSPSVLYESRNKNSVA | GASTRES | QQYHRLPLS | GP_HC
2.7 nM | 6/6 | IISGVMLMESRNKNSVA | NAETREY | QHYDRLPLS | En_HC
nd | 0/6 | KSSVSVLYESRNKNSVA | WASTRES | QQYHRLPLS | Ctrl
3.6 nM | 6/6 | KSSGSVLYEDKNVNSVA | NASQRLM | QQYHRLPLS | GP_Gibbs
640 pM | 6/6 | KFSQSVLYESRDKNSVA | DASTRES | QQYHRLPLS | GP_Gen
360 pM | 6/6 | KFSQSVTMESQNKNSVA | EASTRES | QQYHRLPLS | Ctrl
71 nM | 5/6 | KSSQSVHYESRNKNSVA | DASTRES | QQYVRLPLF | Ctrl
1.9 nM | 6/6 | MSSQSWLYESRNKNSVA | GASTRES | QQYHRLPLS | GP_HC
6.1 nM | 6/6 | KSSQSVLYESYNKNSVA | KASTRES | QQYHRLPLS | Ctrl
8.4 nM | 6/6 | KLSQVTHSEHKNKNSIA | EMVTREK | QQYDRLPLS | En_HC
2.8 nM | 6/6 | KSSGSQLYESRNSNSVA | NASTREL | QDYHRLPLS | GP_Gibbs
2.7 nM | 6/6 | KVSGSELEESRNKGSVA | WASKREE | QQYHRLPLS | GP_Gibbs
350 pM | 6/6 | KLSQSVLYESRNKNSVA | SASTRLS | QQYHRLPLS | GP_Gen
520 pM | 6/6 | KLSQSYLYESRNKNSVA | NASTREQ | QQYHRLPLS | GP_Gen
230 nM | 5/6 | KSSESVLDESNNKNHVA | SASTRES | QFYCRLPLS | Ctrl
44 nM | 1/6 | KSSQSVLYESRNKNSVA | KASTRGS | QQYHRLPLS | Ctrl
10 nM | 6/6 | KISQSVLYESSNKNSVA | WASTRES | QQYHRLPLG | Ctrl
2.4 nM | 6/6 | KLMQLQDYESRNKNSVA | HASQREQ | QQYHRLPLS | GP_Gibbs
430 pM | 6/6 | KFEQSEPYESRNKNSVA | NASTRES | QQYHRLPLS | GP_Gen
630 pM | 6/6 | KISQSVLYESRNKNSVA | NASQRMS | QQYHRLPLS | GP_Gen
11 nM | 6/6 | NLSMELEDAGVKDMSIA | DAELSTM | QQYMRLPLS | En_Gibbs
720 pM | 6/6 | KLSQSMLYESRNDNSVA | QASTRES | QDYHRLPLT | GP_Gibbs
22 nM | 6/6 | KLSMMYQHTSKNKNNIA | ERSTREE | QQYHHLPLS | En_HC
46 nM | 5/6 | KWSQSVLYESTNKNSVA | WASTRES | QQYHRDPLS | Ctrl
1.3 µM | 2/6 | MSQQSVLYEHRNENSVA | DASTRES | QQPHRLPLS | Ctrl
370 pM | 6/6 | KLSQSKLYESRNKNNVA | NASTRMS | QQYHRLPLS | GP_Gen
390 pM | 6/6 | KLYQSVLYESRNKNNVA | NASTRES | QQYHRLPLS | GP_Gen
8.2 nM | 6/6 | KSSQSVLYESGNKNSVA | NASAREH | QQYHRLPLS | Ctrl
7.5 nM | 6/6 | IISQVDAYLSRNTNSIA | DQTTRGS | QQYDRLPLS | En_HC
290 nM | 6/6 | HINGLEDQFPDSWNSIA | QETLRNL | QQYFSLPLS | En_Gibbs
1.4 nM | 6/6 | HISEMMYYQSRNKNNIA | EMSTRER | QHYHRLPLS | En_HC
nd | 0/6 | KFSQSVLYESRNVNSVA | WVSTRFS | QGYHRLPLS | Ctrl
2.5 nM | 6/6 | HISPMQAYAYEAKNSVA | DNETKLN | QQYIRLPLT | En_Gibbs
27 nM | 6/6 | KLSVMASYLSVNKNSVA | EMTTREN | QQYDRLPLS | En_HC
150 nM | 2/6 | MISQLMNMGQFAINSVA | QASLRCN | QQYDRLPLE | En_Gen
1.2 nM | 6/6 | KTSQSWLFEDRMSRSVA | GASTRES | QQYHRLPLS | Ctrl
2.5 nM | 6/6 | KLEQEYDYGSRNKNSVA | QASLRES | QQYHRLPLS | GP_Gibbs
150 nM | 1/6 | MISQVMNTLTREGNNVA | DLQEREK | QQYFRLPLS | En_Gen
1.0 nM | 6/6 | KLSQSDLYESRNKNSVA | NASTREE | QQYHRLPLS | GP_Gen
7.3 nM | 6/6 | KLRQSTLYESRNQNSVA | WASTREE | QQYHRLPLS | GP_HC
1.9 nM | 6/6 | KLPNSQEYESRWKNSVA | EASTREL | QQYHRLPLS | GP_Gibbs
1.1 nM | 6/6 | KLSPSFLYESRNKNSVA | DADTRLE | QQYHRLPLS | GP_Gibbs
1.4 nM | 6/6 | KVSQSVLYESRNWNSVA | EASTRES | QQYHRLPLS | GP_Gen
12 nM | 6/6 | KIGDTLNQLMTKKNNVA | DLVEREN | QQYFRLPLS | En_Gen
510 nM | 5/6 | KIYQLGLGSQKIMRNIA | ETSTRCL | QSYNRLPLS | En_Gibbs
870 pM | 6/6 | KAQNSNEYESRNKNSVA | NASQRED | QQYHRLPLS | GP_Gibbs
1.3 µM | 3/6 | ILYDSVGTLSRNNNSVA | DNSTRES | QQYDRLPLS | En_HC
770 pM | 6/6 | KLGQGVLYESRNKNSVA | GASTRES | QQYHRLPLH | GP_HC
1.3 nM | 6/6 | KSRQSVLYESRNKNSVA | DASTRES | QQYHRLPLS | Ctrl
2.2 nM | 6/6 | KLTHPTDLWLNHASSIA | DANISVE | QQYYQLPLT | En_Gibbs
300 pM | 6/6 | KLDQSQLYESRNKNSVA | GASTRES | QQYHRLPLS | GP_HC
170 pM | 4/6 | RLNVFQYAITGDNYAIA | NAREKLM | QQYMRLPLT | En_Gibbs
81 nM | 6/6 | RIMPQLNVEGKNRNAVA | DGKEQVI | QHYARLPLS | En_Gibbs
45 nM | 2/6 | MSSQSVLYESRNKNSVA | WASTRES | QQYHRLPLS | Ctrl
560 pM | 6/6 | HFSQSVLYESRNKNSVA | DASTRES | QQYHRLPLS | GP_HC
1.5 nM | 6/6 | KLSQSTLYESRNTNSVA | QASTRLS | QQYHRLPLS | GP_Gibbs
nd | 0/6 | IVSQLMLWGYHAKNSIA | EAQTRVN | QQYDRLPLI | En_Gen
66 nM | 1/6 | MVNTNLVHQAQRDNSIA | EADMVAA | QDYDRLPLI | En_Gibbs
170 nM | 5/6 | RINVFQNMSTQGNNSIA | GAEQKVH | QQYMRLPLY | En_Gibbs
400 pM | 6/6 | KLSQSVLYESRNKNSVA | NASTRMS | QDYHRLPLS | GP_Gen
7.4 nM | 6/6 | SISGFMKSLSAHTNSVA | DMTNRED | QQYDRLPLS | En_Gen
2.4 nM | 6/6 | NSSQSDLYESRNKNSVA | GGNTRES | QQYHRLPLS | GP_HC
10 nM | 6/6 | KSSQSVEYESLNKNSVA | RASIRES | QQYHRLPLS | Ctrl

Values reported by Li et al. 2023, doi:10.1038/s41467-023-39022-2 (FLAb copy).